Laboratory results as given in US20250154242A1.

Columns and labels:
murine TNFα (mouse) [1] = biological target: murine TNFα (mouse) (UniProt P06804); assay: ELISA, antibody captured by anti-human Fc, biotinylated murine TNFα titrated, short wash pH 7.4
murine TNFα (mouse) [2] = biological target: murine TNFα (mouse) (UniProt P06804); assay: ELISA, antibody captured on anti-human Fc coated plate, biotinylated murine TNFα titrated (EC50 in M of b-murine TNFα), prolonged wash at pH 7.4, neutravidin-HRP
murine TNFα (mouse) [3] = biological target: murine TNFα (mouse) (UniProt P06804); assay: ELISA, antibody captured on anti-human Fc coated plate, biotinylated murine TNFα titrated (EC50 in M of b-murine TNFα), prolonged wash at pH 6.0, neutravidin-HRP
murine TNFα (mouse) [4] = biological target: murine TNFα (mouse) (UniProt P06804); assay: ELISA, antibody captured on anti-human Fc coated plate, biotinylated murine TNFα titrated (EC50 in M of b-murine TNFα), prolonged wash at pH 7.4, neutravidin-HRP; remark: listed apart in the source
murine TNFα (mouse) [5] = biological target: murine TNFα (mouse) (UniProt P06804); assay: ELISA, antibody captured on anti-human Fc coated plate, biotinylated murine TNFα titrated (EC50 in M of b-murine TNFα), prolonged wash at pH 6.0, neutravidin-HRP; curve has no upper plateau (A450 about 0.43 at log -7.9)
[6] = biological target: cynomolgus TNFα (cynomolgus monkey) (UniProt P79337)
[7] = biological target: cynomolgus TNFα (cynomolgus monkey) (UniProt P79337); assay: ELISA, antibody captured on anti-human kappa coated plate, biotinylated cynomolgus TNFα titrated (EC50 in M of b-cynomolgus TNFα), prolonged wash at pH 6.0, neutravidin-HRP
[8] = biological target: cynomolgus TNFα (cynomolgus monkey) (UniProt P79337); assay: ELISA, antibody captured on anti-human kappa coated plate, biotinylated cynomolgus TNFα titrated (EC50 in M of b-cynomolgus TNFα), pH 7.4 wash, neutravidin-HRP
murine TNFα (mouse) [9] = biological target: murine TNFα (mouse) (UniProt P06804); assay: ELISA, antibody captured on anti-human Fc coated plate, biotinylated murine TNFα titrated (EC50 in M of b-murine TNFα), prolonged wash at pH 6.0, neutravidin-HRP; remark: listed apart in the source
murine TNFα (mouse) [10] = biological target: murine TNFα (mouse) (UniProt P06804); assay: ELISA, antibody captured on anti-human Fc coated plate, biotinylated murine TNFα titrated (EC50 in M of b-murine TNFα), brief wash at pH 7.4, neutravidin-HRP
murine TNFα (mouse) [11] = biological target: murine TNFα (mouse) (UniProt P06804); assay: ELISA, antibody captured, biotinylated murine TNFα titrated, prolonged wash pH 7.4; pH 7.4 (FIG. 19A)
murine TNFα (mouse) [12] = biological target: murine TNFα (mouse) (UniProt P06804); assay: ELISA, antibody captured, biotinylated murine TNFα titrated, prolonged wash pH 6.0; prolonged pH 6.0 wash (FIG. 19B)
[13] = biological target: recombinant human TNFα (human) (UniProt P01375)
[14] = biological target: recombinant human TNFα (human) (UniProt P01375); remark: listed apart in the source
[15] = biological target: membrane-associated TNFα (membrane-bound mutant TNFα with amino acids 77 through 88 removed) on CHO K-1 cells (human) (UniProt P01375); assay: cell ELISA on live mTNFα-expressing CHO cells, on ice
[16] = biological target: membrane-associated TNFα (membrane-bound mutant TNFα with amino acids 77 through 88 removed) on CHO K-1 cells (human) (UniProt P01375); assay: cell ELISA on live mTNFα-expressing CHO cells, average of the runs
[17] = biological target: membrane-associated TNFα (membrane-bound mutant TNFα with amino acids 77 through 88 removed) on CHO K-1 cells (human) (UniProt P01375); assay: cell ELISA on mTNFα CHO cells against ELISA on recombinant human TNFα
[18] = biological target: membrane-associated TNFα (membrane-bound mutant TNFα with amino acids 77 through 88 removed) on CHO K-1 cells (human) (UniProt P01375); assay: flow cytometry on mTNFα-expressing CHO cells, 10 µg/mL antibody, anti-human kappa-FITC
[19] = biological target: recombinant human TNFα (human) (UniProt P01375); assay: ELISA, immobilised recombinant human TNFα
[20] = biological target: recombinant human TNFα (human) (UniProt P01375); assay: ELISA, immobilised recombinant human TNFα, average (one run)
[21] = biological target: recombinant human TNFα (human) (UniProt P01375); assay: ELISA, coated human TNFα, prolonged wash pH 6.0 against pH 7.4
[22] = biological target: recombinant human TNFα (human) (UniProt P01375); assay: BLI (Octet), follow-up study, biotinylated human TNFα on sensor, pH 7.4, global 1:1 fit
[23] = biological target: recombinant human TNFα (human) (UniProt P01375); assay: ELISA on plate-coated recombinant human TNFα, antibody titrated, binding at pH 7.4, prolonged wash at pH 6.0
[24] = biological target: recombinant human TNFα (human) (UniProt P01375); assay: ELISA, antibody captured on anti-human Fc coated plate, biotinylated human TNFα titrated (EC50 in M of b-TNF), prolonged wash at pH 7.4, neutravidin-HRP
[25] = biological target: recombinant human TNFα (human) (UniProt P01375); assay: ELISA, antibody captured on anti-human Fc coated plate, biotinylated human TNFα titrated (EC50 in M of b-TNF), prolonged wash at pH 6.0, neutravidin-HRP
[26] = biological target: cynomolgus TNFα (cynomolgus monkey) (UniProt P79337); assay: ELISA, antibody captured on anti-human kappa coated plate, biotinylated cynomolgus TNFα titrated (EC50 in M of b-cynomolgus TNFα), prolonged wash at pH 6.0, neutravidin-HRP; curve has no upper plateau (A450 about 0.6 at log -7.3)

| Substance | pEC50 (murine TNFα (mouse) [2]) | pEC50 (murine TNFα (mouse) [3]) | pEC50 (murine TNFα (mouse) [4]) | IC50: inhibition of stimulation of HEK-Blue TNFα reporter cells by 5 pM cynomolgus TNFα (SEAP, A650) [6] | pEC50 [7] | pEC50 [8] | pEC50 (murine TNFα (mouse) [9]) | also measured |
| --- | --- | --- | --- | --- | --- | --- | --- | --- |
| AF-B2637 (antibody) | – | – | – | 1.78e-09 M | 9.09 | 9.29 | – | – |
| AF-M2631 (antibody; other documents disagree on this pair) | 10.08 | 9.84 | 10.21 | – | – | – | 9.96 | pEC50 (murine TNFα (mouse) [10]): 9.86 |
| AF-M2633 (antibody; other documents disagree on this pair) | – | – | – | – | – | – | – | pEC50 (murine TNFα (mouse) [11]): 9.66; pEC50 (murine TNFα (mouse) [12]): 9.24 |
| AF-B2631 (antibody; other documents disagree on this pair) | 10.18 | 10.05 | 10.33 | – | – | – | 10.23 | pEC50 [19]: 10.06; pEC50 [20]: 10.06; fold increase of EC50, pH 6.0 wash against pH 7.4 wash [21]: 1.3 fold; pKd [22]: > 12.00; koff [22]: < 1e-07 s⁻¹; kon [22]: 414000 M⁻¹ s⁻¹; pEC50 [23]: 9.95; pEC50 [24]: 10.21; pEC50 [25]: 10.14; pEC50 (murine TNFα (mouse) [10]): 9.98 |
| AF-M2631 (antibody) | – | – | – | 6.43e-09 M | – | 9.51 | – | pEC50 [26]: 7.86 |

The next lines start with results.

| pEC50 (murine TNFα (mouse) [2]) | pEC50 (murine TNFα (mouse) [3]) | pEC50 (murine TNFα (mouse) [4]) | IC50: inhibition of stimulation of HEK-Blue TNFα reporter cells by 5 pM cynomolgus TNFα (SEAP, A650) [6] | pEC50 [7] | pEC50 [8] | pEC50 (murine TNFα (mouse) [9]) | Substance | also measured |
| --- | --- | --- | --- | --- | --- | --- | --- | --- |
| 9.27 | 8.75 | 9.42 | – | – | – | – | AF-B2637 (antibody; other documents disagree on this pair) | pEC50 (murine TNFα (mouse) [1]): 9.40; pEC50 (murine TNFα (mouse) [5]): 8.65 |
| – | – | – | 2.83e-10 M | 9.11 | – | – | AF-M2630 (antibody) | – |
| 10.12 | 10.20 | 10.22 | – | – | – | 10.24 | AF-M2630 (antibody; other documents disagree on this pair) | – |
| – | – | – | 4.26e-10 M | 8.76 | 9.57 | – | AF-B2631 (antibody) | IC50: inhibition of stimulation of HEK-Blue TNFα reporter cells by 5 pM human TNFα (SEAP, A650) [13]: 3.22e-10 M; IC50: inhibition of stimulation of THP1-Blue NF-kB reporter cells by 10 pM human TNFα (SEAP, A650) [14]: 1.58e-11 M; pEC50 [15]: 9.39 and 9.46 and 9.56; pEC50 [16]: 9.47; Ratio (mTNFα/rTNFα) of average EC50 [17]: 3.9; MFI [18]: 618 MFI |

pEC50, pKd: −log10 of the molar value. Where “and” joins values, the source holds several entries; their conditions need not be identical. Identical values can stand only once.
